T1: LIN28A (human?, UniProt Q9H9Z2 1-209)
T1 sequence: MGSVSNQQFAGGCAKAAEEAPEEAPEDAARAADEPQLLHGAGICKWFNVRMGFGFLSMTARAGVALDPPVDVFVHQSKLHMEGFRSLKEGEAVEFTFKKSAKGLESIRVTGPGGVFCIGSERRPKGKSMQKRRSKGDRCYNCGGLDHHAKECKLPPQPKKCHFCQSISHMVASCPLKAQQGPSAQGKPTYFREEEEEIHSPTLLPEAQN

T2: CIRBP (Homo sapiens, UniProt Q14011 1-172)
T2 sequence: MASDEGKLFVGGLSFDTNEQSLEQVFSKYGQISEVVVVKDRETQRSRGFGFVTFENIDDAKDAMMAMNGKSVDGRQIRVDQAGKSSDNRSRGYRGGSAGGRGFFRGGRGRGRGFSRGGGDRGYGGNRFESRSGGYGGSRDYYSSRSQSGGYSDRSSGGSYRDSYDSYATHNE

T3: DHX36 (Homo sapiens, UniProt Q9H2U1 1-1008)
T3 sequence: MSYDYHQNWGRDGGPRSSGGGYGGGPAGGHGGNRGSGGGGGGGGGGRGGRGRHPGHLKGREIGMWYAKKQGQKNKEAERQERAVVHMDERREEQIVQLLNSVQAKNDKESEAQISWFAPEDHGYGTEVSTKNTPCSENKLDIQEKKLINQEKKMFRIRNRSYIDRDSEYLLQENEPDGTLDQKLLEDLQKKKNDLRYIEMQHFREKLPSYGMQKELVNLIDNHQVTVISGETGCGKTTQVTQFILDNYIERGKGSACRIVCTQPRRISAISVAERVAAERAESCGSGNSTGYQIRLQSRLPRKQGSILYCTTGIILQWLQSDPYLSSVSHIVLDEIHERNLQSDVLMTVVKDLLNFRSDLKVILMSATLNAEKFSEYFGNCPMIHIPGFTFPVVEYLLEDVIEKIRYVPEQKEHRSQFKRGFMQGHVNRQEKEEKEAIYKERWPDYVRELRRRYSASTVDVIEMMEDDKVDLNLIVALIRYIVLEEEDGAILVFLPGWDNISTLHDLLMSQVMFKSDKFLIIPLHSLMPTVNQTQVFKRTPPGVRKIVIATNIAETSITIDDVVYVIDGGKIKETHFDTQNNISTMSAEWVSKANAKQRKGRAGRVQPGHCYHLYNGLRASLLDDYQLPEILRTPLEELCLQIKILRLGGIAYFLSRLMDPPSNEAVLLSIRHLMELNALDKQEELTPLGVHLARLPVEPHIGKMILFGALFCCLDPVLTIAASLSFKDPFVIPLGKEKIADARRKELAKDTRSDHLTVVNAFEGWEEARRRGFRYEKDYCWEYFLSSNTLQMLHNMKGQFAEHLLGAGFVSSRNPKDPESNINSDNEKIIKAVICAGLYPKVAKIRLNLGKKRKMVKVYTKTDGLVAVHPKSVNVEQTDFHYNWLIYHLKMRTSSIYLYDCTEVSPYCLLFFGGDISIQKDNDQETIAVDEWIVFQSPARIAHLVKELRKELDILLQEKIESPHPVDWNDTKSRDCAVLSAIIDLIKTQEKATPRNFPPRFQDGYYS

B1: hsa-mir-3678 (structured_RNA)
RNA: GGGACCAACUUAUGCUAGUGCAGCGUGGGGUGUACGAAGUUUCAGCGCUGUGUUGAAUGAUUGGUGAGUUUGUUUGCUCAUUGAUUGAAUCACUGCGCUGAAGCUUCGUGCAC
B2: hsa-mir-545 (structured_RNA)
RNA: GGGAACCAUACAGGCGUUCCAUGGUAACGGUGUACGAAGUUUCAGCUAGAUGAAUAAAUGAAUGACUCAUCAGCUGAAGCUUCGUGCAC
B3: hsa-mir-7151 (structured_RNA)
RNA: GGGAAGAAUAGCGGGUCGGCGAAUAGACGGUGUACGAAGUUUCAGCAUUGGCUUGGAUUCUGCAAAGCCUGCUGAAGCUUCGUGCAC
B4: hsa-mir-20b (structured_RNA)
RNA: GGGAAAACUUUAUGGGCGCGAUCAGCUCGGUGUACGAAGUUUCAGCCAGGUAGUUUUGGCAUGACUCUACUGGCUGAAGCUUCGUGCAC
B5: hsa-mir-1263 (structured_RNA)
RNA: GGGAGUGCAUUCAGAACGAAUCGUAUGUGGUGUACGAAGUUUCAGCGAGUAUUUUAAUACUGGCAUACUCGCUGAAGCUUCGUGCAC
B6: hsa-mir-3654 (structured_RNA)
RNA: GGGAAGAGACCCAACACAGUGAGGUCGAGGUGUACGAAGUUUCAGCCAUCACUGGAAUGUUCCAGCGACUGCUGAAGCUUCGUGCAC
B7: hsa-mir-4766 (structured_RNA)
RNA: GGGAACGGGACGACUUUAUACUAGGACUGGUGUACGAAGUUUCAGCGUGUUUAUUUUUUACUAAAUAGGCUGAAGCUUCGUGCAC
B8: hsa-mir-3130-2 (structured_RNA)
RNA: GGGAAGAGGUUUCAUCGGCGGACGCUAGGGUGUACGAAGUUUCAGCCAGCCUUGACAACAGGCUGGCUGAAGCUUCGUGCAC
B9: hsa-mir-548e (structured_RNA)
RNA: GGGACGGGGCGCAAACUAUGAUUAUAUCGGUGUACGAAGUUUCAGCUUUUGCUAUUACUUUUAAAGGCAAAAGCUGAAGCUUCGUGCAC
B10: hsa-mir-4632 (structured_RNA)
RNA: GGGAACGUCCCAUCGUGCCUAAAGAGAUGGUGUACGAAGUUUCAGCGGCGGAGGCAGGCGUGACCGUUUGCCGCUGAAGCUUCGUGCAC
B11: hsa-mir-449a (structured_RNA)
RNA: GGGAAGAUCAGGUCUGUAGCCACACUCAGGUGUACGAAGUUUCAGCUGGUUGAAUAUGUGAAUGGCAUCGGCUGAAGCUUCGUGCAC
B12: hsa-mir-548aj-1 (structured_RNA)
RNA: GGGACUAGAGCACGUGUUCAUAGAUCAUGGUGUACGAAGUUUCAGCUAUGCCAUUAAAAGUAAUGGUAAAGCUGAAGCUUCGUGCAC
B13: hsa-mir-638 (structured_RNA)
RNA: GGGCAAGGAUGCCUCUCAGCCAAUAAUGGGUGUACGAAGUUUCAGCUAGGGCGCGGAGGGCGGACCGGGAAGCUGAAGCUUCGUGCAC
B14: hsa-mir-648 (structured_RNA)
RNA: GGGACACGGUAGGGAAACCCACCAACUAGGUGUACGAAGUUUCAGCUGGUGGGGGCCGGGGCAGGCCCAGCGAAAGCUGAAGCUUCGUGCAC
B15: hsa-mir-4684 (structured_RNA)
RNA: GGGAGACGUUUUCAUCUGAUGUUGGAGCGGUGUACGAAGUUUCAGCAACAUACAUUUGUCUUGGUGUGUUGCUGAAGCUUCGUGCAC
B16: hsa-mir-520g_520h (structured_RNA)
RNA: GGGAAAGACCAUAGCGAGCUUGGAAUAGGGUGUACGAAGUUUCAGCCUGUUUGUUGUCUGAGAAAAAACAGCUGAAGCUUCGUGCAC
B17: hsa-mir-148a (structured_RNA)
RNA: GGGAAUCCUACCAGGGCUGUUAAAUGAUGGUGUACGAAGUUUCAGCCCGACUCUGAGUAUGAUAGAAGUCGCUGAAGCUUCGUGCAC
B18: hsa-mir-410 (structured_RNA)
RNA: GGGAGGGUAUCGUCAGCUCAGUGUAAUAGGUGUACGAAGUUUCAGCAGUUCGCUUUUAUUAAUGACGAAUAGCUGAAGCUUCGUGCAC
B19: hsa-mir-548t (structured_RNA)
RNA: GGGAGCCGAACUACCGUAACUCUCGGCAGGUGUACGAAGUUUCAGCUUUUGCAAUUUUUUAAUGACAAAAGCUGAAGCUUCGUGCAC
B20: hsa-mir-3672 (structured_RNA)
RNA: GGGAAUACGCGGACACGGGAACCUGUUAGGUGUACGAAGUUUCAGCUCUUAGACUAUUACAAGAGCUGAAGCUUCGUGCAC
B21: PARIS_ID7 (structured_RNA)
RNA: GGGAUACUAGCGGAAGGAUGAUCAUUCAGGUGUACGAAGUUUCAGCUAUUACCGGUUUUCCAUUUAUGAUGGUAAUAGCUGAAGCUUCGUGCAC
B22: NEAT1_ParasoR_ID10 (structured_RNA)
RNA: GGGACAUAAAAUCUGUGGCGGCGUCUUUGGUGUACGAAGUUUCAGCCAUAUGUUUUCAAUUCUCUCAUUAUAUACCUAGGAGUAGAAUUACUGGGUCAUAUGGCUGAAGCUUCGUGCAC
B23: hsa-mir-643 (structured_RNA)
RNA: GGGAAAACGGCUCUUGGCAAGAUCCACCGGUGUACGAAGUUUCAGCAAGUAGUUGGCGUCUUCAGAGACACUUGCUGAAGCUUCGUGCAC
B24: hsa-mir-4726 (structured_RNA)
RNA: GGGACGUGAUGGGUGCUCAGCCCAAAAUGGUGUACGAAGUUUCAGCGAGUGGUCGGGUCGACUGAACCGCUGAAGCUUCGUGCAC
B25: hsa-mir-3914-1 (structured_RNA)
RNA: GGGAGACCUCACCAUCGGGAGUAUUGGUGGUGUACGAAGUUUCAGCCCUUCUAAUGAGUAUGCUUAACUUGGUAGAAGGGCUGAAGCUUCGUGCAC
B26: hsa-mir-3683 (structured_RNA)
RNA: GGGAAUCAAGAACGGGGUAUGAAUUAUGGGUGUACGAAGUUUCAGCAUCAUCUCUCCCUUGGAUGCUGAAGCUUCGUGCAC

This is one part of the list.

The target of the first assay is T1, LIN28A. Briefly: FOREST: bead pull-down of RNA structure library v1, barcode microarray; U1A/LIN28A: 20 mM HEPES pH 7.5, 80 mM KCl, 20 mM NaCl, 10% glycerol, 2 mM DTT, 0.1 ug/uL BSA, 4 C; BG4/CIRBP/DHX36: 10 mM Tris-HCl pH 7.5, 100 mM KCl (or LiCl),; high values mean tight binding.
The molecule B1 gave a binding signal of 0.593 z-score.
On the same count and under the same terms, the value for B2 was 0.584 z-score.
Still for that read-out and setting: the value for B3 was 0.613 z-score.
Consider B4, for which the binding signal is 0.563 z-score.
For the molecule B5, the binding signal is 0.612 z-score.
Regarding B6, the binding signal came out at 0.563 z-score.
On the same count and under the same terms, the value for B7 was 0.565 z-score; that for B8 was 0.599 z-score.
The same measure, in the same setting: the value for B9 was 0.616 z-score.
Same read-out and setting: the value for B10 was 0.611 z-score; that for B11 was 0.579 z-score; that for B12 was 0.567 z-score.
As to B13, the binding signal is 0.595 z-score.
As for B14, the binding signal is 0.591 z-score.
On the same count and under the same terms, the value for B15 was 0.569 z-score; that for B16 was 0.624 z-score; that for B17 was 0.61 z-score.
Still for that read-out and setting: the value for B18 was 0.572 z-score; that for B19 was 0.56 z-score; that for B20 was 0.562 z-score.
On the same count and under the same terms, the value for B21 was 0.571 z-score; that for B22 was 0.622 z-score.
Turning to B23, the binding signal stood at 0.604 z-score.
B24 showed a binding signal of 0.585 z-score.
In turn, B25 displayed a binding signal of 0.597 z-score.
B26 yielded a binding signal of 0.617 z-score.

The target in a further assay is T2, CIRBP. Described as above.
In turn, B1 returned a binding signal of -0.916 z-score.
On the same count and under the same terms, the value for B2 was -0.298 z-score; that for B3 was 1.33 z-score.
On the same count and under the same terms, the value for B4 was 0.71 z-score; that for B5 was 0.621 z-score; that for B6 was 0.00697 z-score.
Same read-out and setting: the value for B7 was 0.465 z-score; that for B8 was 0.141 z-score.
B9: the binding signal was found to be 0.384 z-score.
Consider B10, for which the binding signal came to 1.09 z-score.
In turn, B11 came in with a binding signal of 0.534 z-score.
As to B12, the binding signal was 0.108 z-score.
In the case of B13, the binding signal is -0.633 z-score.
The molecule B14 came in with a binding signal of 2.58 z-score.
For B15, the binding signal is -0.0137 z-score.
On to B16, for which the binding signal was -0.722 z-score.
In turn, B17 gave a binding signal of 0.0289 z-score.
The same measure, in the same setting: the value for B18 was 0.189 z-score; that for B19 was -0.443 z-score.
B20: the binding signal is -0.327 z-score.
Still for that read-out and setting: the value for B21 was 0.652 z-score; that for B22 was -0.882 z-score; that for B23 was 0.658 z-score.
On the same count and under the same terms, the value for B24 was 0.592 z-score.
On the same count and under the same terms, the value for B25 was -0.808 z-score; that for B26 was -0.0781 z-score.

A further assay has as its target T3, DHX36. The assay is described as above.
B1 came in with a binding signal of 0.108 z-score.
The same measure, in the same setting: the value for B2 was 0.91 z-score; that for B3 was -0.029 z-score; that for B4 was -0.272 z-score.
Still for that read-out and setting: the value for B5 was -0.354 z-score; that for B6 was 0.929 z-score.
Same read-out and setting: the value for B7 was 0.554 z-score; that for B8 was -0.0336 z-score.
Turning to B9, the binding signal amounted to 0.0012 z-score.
In turn, B10 displayed a binding signal of 1.46 z-score.
For the molecule B11, the binding signal is -0.219 z-score.
On the same count and under the same terms, the value for B12 was -0.98 z-score; that for B13 was 1.84 z-score.
Still for that read-out and setting: the value for B14 was 3.42 z-score; that for B15 was -0.118 z-score.
Molecule B16 registered a binding signal of 0.174 z-score.
Consider B17, for which the binding signal is -0.748 z-score.
B18: the binding signal turned out to be 0.0191 z-score.
On the same count and under the same terms, the value for B19 was -0.0175 z-score; that for B20 was -0.521 z-score.
Still for that read-out and setting: the value for B21 was -0.0159 z-score; that for B22 was 0.489 z-score; that for B23 was 0.198 z-score.
As for B24, the binding signal came out at 0.89 z-score.
For B25, the binding signal is -0.358 z-score.
Same read-out and setting: the value for B26 was -0.348 z-score.

The record behind these values is paper PMC7723054.
